The assay concerns the target T1, human JAK1 (a.a. 837-1142) (Homo sapiens, UniProt P23458).
T1 construct: human JAK1 (a.a. 837-1142); His tag (N); made in house; host or cells: insect cells (baculovirus)
In words: In vitro JAK kinase assay (HTRF), JAK1. The note with it: 1 mM ATP. It is filed as biochemical. The procedure:
Compounds herein were tested for inhibitory activity of JAK targets according to the following in vitro assay described in Park et al., Analytical Biochemistry 1999, 269, 94-104. The catalytic domains of human JAK1 (a.a. 837-1142), JAK2 (a.a. 828-1132) and JAK3 (a.a. 781-1124) with an N-terminal His tag were expressed using baculovirus in insect cells and purified. The catalytic activity of JAK1, JAK2 or JAK3 was assayed by measuring the phosphorylation of a biotinylated peptide. The phosphorylated peptide was detected by homogenous time resolved fluorescence (HTRF). […] Reactions were carried out at room temperature for 1 hour and then stopped with 20 μL 45 mM EDTA, 300 nM SA-APC, 6 nM Eu-Py20 in assay buffer (Perkin Elmer, Boston, Mass.). Binding to the Europium labeled antibody took place for 40 minutes and HTRF signal was measured on a Fusion plate reader (Perkin Elmer, Boston, Mass.).

Chains of the proteins cited; added tags and fusions are not shown. Residues count along the entry.
UniProt P23458, 849-1154: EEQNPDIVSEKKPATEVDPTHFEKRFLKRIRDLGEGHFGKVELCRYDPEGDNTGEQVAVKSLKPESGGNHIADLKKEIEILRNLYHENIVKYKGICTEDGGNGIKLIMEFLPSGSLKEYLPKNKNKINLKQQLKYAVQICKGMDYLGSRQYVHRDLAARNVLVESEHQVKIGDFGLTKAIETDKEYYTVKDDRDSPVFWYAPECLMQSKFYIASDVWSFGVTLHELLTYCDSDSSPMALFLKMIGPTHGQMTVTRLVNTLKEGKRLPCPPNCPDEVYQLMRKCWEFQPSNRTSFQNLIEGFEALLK

SMILES strings stand for the structures.

As to `CN(C)Cc1cc(F)cc(OC2CCN(CC(CC#N)n3cc(-c4ncnc5[nH]ccc45)cn3)CC2)c1` (single isomer, unassigned) [Example 12, 4-(4-{3-[(Dimethylamino)methyl]-5-fluorophenoxy}piperidin-1-yl)-3-[4-(7H-pyrrolo[2,3-d]pyrimidin-4-yl)-1H-pyrazol-1-yl]butanenitrile], the IC50 was below 10 nM.

In general, IC50 refers to the point on the concentration scale where inhibition reaches its midpoint. Read a high IC50 as weaker potency in that assay.

For the origin of these results see US20220378791A1, “JAK1 INHIBITORS FOR THE TREATMENT OF MYELODYSPLASTIC SYNDROMES” (Incyte Corporation, priority 2014, published 2022).
